Test results published in US20170247475A1 (Boehringer Ingelheim, published 2017).

Sequences of proteins named here, by UniProt entry; tags and fusion partners are left off. A line that says so, or that is headed by a name, gives the form on record, which may keep a tag or linker.
UniProt P15692, other isoform, or with tags, fused parts or gaps limits assumed: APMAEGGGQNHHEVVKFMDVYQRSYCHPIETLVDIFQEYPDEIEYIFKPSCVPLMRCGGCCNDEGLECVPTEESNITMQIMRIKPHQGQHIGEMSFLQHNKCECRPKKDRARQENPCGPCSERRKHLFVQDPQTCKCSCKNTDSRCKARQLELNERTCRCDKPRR

What was measured:
[1] = biological target: T1, recombinant human VEGF165 (human, UniProt P15692-4 27-191); experiment: AlphaScreen competition, 0.05 nM hVEGF165 and 0.05 nM hVEGFR2-Fc; blocked: hVEGFR2-Fc
T1 construct: also called hVEGF165; rhVEGF165

[2] = biological target: T1, recombinant human VEGF165; experiment: hVEGF165/hVEGFR2-Fc competition AlphaScreen
Experimental: (§1) Finally, streptavidin donor beads (20 μg/ml) are added and after 1 hour of incubation in the dark, fluorescence is measured on the Envision microplate reader.

[3] = biological target: T1, recombinant human VEGF165; experiment: AlphaScreen competition, 0.05 nM hVEGF165 and 0.05 nM hVEGFR1-Fc; blocked: hVEGFR1-Fc
[4] = biological target: T1, recombinant human VEGF165; experiment: hVEGF165/hVEGFR1-Fc competition AlphaScreen
Experimental: as §1

[5] = biological target: T1, recombinant human VEGF165; experiment: AlphaScreen competition, 0.05 nM hVEGF165 and 0.05 nM hVEGFR2-Fc; blocked: hVEGFR2-Fc; remark: listed apart in the source
[6] = biological target: T1, recombinant human VEGF165; experiment: competition AlphaScreen, blocking of hVEGF165 binding to hVEGFR2-Fc
[7] = biological target: T1, recombinant human VEGF165; experiment: AlphaScreen competition, 0.05 nM hVEGF165 and 0.05 nM hVEGFR2-Fc; blocked: hVEGFR2-Fc; remark: listed apart in the source
[8] = biological target: T1, recombinant human VEGF165; experiment: as above; remark: listed apart in the source
[9] = biological target: T1, recombinant human VEGF165; experiment: AlphaScreen competition, 0.05 nM hVEGF165 and 0.05 nM hVEGFR1-Fc; blocked: hVEGFR1-Fc; remark: listed apart in the source
[10] = biological target: T1, recombinant human VEGF165; experiment: competition AlphaScreen, blocking of hVEGF165 binding to hVEGFR2-Fc; remark: listed apart in the source
[11] = biological target: T1, recombinant human VEGF165; experiment: AlphaScreen competition, 0.05 nM hVEGF165 and 0.05 nM hVEGFR2-Fc; blocked: hVEGFR2-Fc; remark: listed apart in the source
[12] = biological target: T1, recombinant human VEGF165; experiment: AlphaScreen competition, 0.05 nM hVEGF165 and 0.05 nM hVEGFR1-Fc; blocked: hVEGFR1-Fc; remark: listed apart in the source
[13] = biological target: T1, recombinant human VEGF165; experiment: as above; remark: listed apart in the source
[14] = biological target: T1, recombinant human VEGF165; experiment: as above; remark: listed apart in the source
[15] = biological target: T1, recombinant human VEGF165; experiment: as above; remark: listed apart in the source
[16] = biological target: T1, recombinant human VEGF165; experiment: AlphaScreen competition, 0.05 nM hVEGF165 and 0.05 nM hVEGFR2-Fc; blocked: hVEGFR2-Fc; remark: listed apart in the source
[17] = biological target: T1, recombinant human VEGF165; experiment: AlphaScreen competition, 0.05 nM hVEGF165 and 0.05 nM hVEGFR1-Fc; blocked: hVEGFR1-Fc; remark: listed apart in the source
[18] = biological target: T1, recombinant human VEGF165; experiment: competition AlphaScreen, blocking of hVEGF165 binding to hVEGFR1-Fc
[19] = biological target: T1, recombinant human VEGF165; experiment: competition AlphaScreen, blocking of hVEGF165 binding to hVEGFR2-Fc; remark: listed apart in the source
[20] = biological target: T1, recombinant human VEGF165; experiment: AlphaScreen competition, 0.05 nM hVEGF165 and 0.05 nM hVEGFR2-Fc; blocked: hVEGFR2-Fc; remark: listed apart in the source
[21] = biological target: T1, recombinant human VEGF165; experiment: competition AlphaScreen, blocking of hVEGF165 binding to hVEGFR2-Fc; remark: listed apart in the source
[22] = biological target: T1, recombinant human VEGF165; experiment: AlphaScreen competition, 0.05 nM hVEGF165 and 0.05 nM hVEGFR2-Fc; blocked: hVEGFR2-Fc; remark: listed apart in the source
[23] = biological target: T1, recombinant human VEGF165; experiment: hVEGF165/hVEGFR2-Fc competition ELISA
[24] = biological target: T1, recombinant human VEGF165; experiment: competition AlphaScreen, blocking of hVEGF165 binding to hVEGFR1-Fc; remark: listed apart in the source
[25] = biological target: T1, recombinant human VEGF165; experiment: AlphaScreen competition, 0.05 nM hVEGF165 and 0.05 nM hVEGFR1-Fc; blocked: hVEGFR1-Fc; remark: listed apart in the source
[26] = biological target: T1, recombinant human VEGF165; experiment: AlphaScreen competition, 0.05 nM hVEGF165 and 0.05 nM hVEGFR2-Fc; blocked: hVEGFR2-Fc; remark: listed apart in the source
[27] = biological target: T1, recombinant human VEGF165; experiment: hVEGF165/hVEGFR1-Fc competition ELISA
[28] = biological target: T1, recombinant human VEGF165; experiment: AlphaScreen competition, 0.05 nM hVEGF165 and 0.05 nM hVEGFR2-Fc; blocked: hVEGFR2-Fc; remark: listed apart in the source
[29] = biological target: T1, recombinant human VEGF165; experiment: as above; remark: listed apart in the source
[30] = biological target: T1, recombinant human VEGF165; experiment: AlphaScreen competition, 0.05 nM hVEGF165 and 0.05 nM hVEGFR1-Fc; blocked: hVEGFR1-Fc; remark: listed apart in the source

IC50 (read off the curve) [1]: ~1 nM
IC50 [2]: 0.6 nM
IC50 (read off the curve) [3]: ~3 nM
% inhibition [4]: 79%
IC50 [4]: 3.3 nM
IC50 (read off the curve) [5]: ~1 nM
IC50 (read off the curve) [6]: ~1 nM
IC50 (read off the curve) [7]: ~0.5 nM
IC50 (read off the curve) [8]: ~0.5 nM
IC50 (read off the curve) [9]: ~4 nM
IC50 (read off the curve) [10]: ~0.8 nM
IC50 (read off the curve) [11]: ~1 nM
IC50 (read off the curve) [12]: ~4 nM
IC50 (read off the curve) [13]: ~4 nM
IC50 (read off the curve) [14]: ~4 nM
IC50 (read off the curve) [15]: ~4 nM
IC50 (read off the curve) [16]: ~0.5 nM
IC50 (read off the curve) [17]: ~4 nM
IC50 (read off the curve) [18]: ~2 nM
IC50 (read off the curve) [19]: ~0.8 nM
IC50 (read off the curve) [20]: ~1 nM
IC50 (read off the curve) [21]: ~0.8 nM
IC50 (read off the curve) [22]: ~1 nM
IC50 [23]: 1.6 nM
IC50 (read off the curve) [24]: ~2 nM
IC50 (read off the curve) [25]: ~4 nM
IC50 (read off the curve) [26]: ~1 nM
IC50 [27]: 1.2 nM
IC50 (read off the curve) [28]: ~1 nM
IC50 (read off the curve) [29]: ~1 nM
IC50 (read off the curve) [30]: ~4 nM
B1: Ranibizumab (Fab, V domains shown)
VH: EVQLVESGGGLVQPGGSLRLSCAASGYDFTHYGMNWVRQAPGKGLEWVGWINTYTGEPTYAADFKRRFTFSLDTSKSTAYLQMNSLRAEDTAVYYCAKYPYYYGTSHWYFDVWGQGTLVTVSS
VL: DIQLTQSPSSLSASVGDRVTITCSASQDISNYLNWYQQKPGKAPKVLIYFTSSLHSGVPSRFSGSGSGTDFTLTISSLQPEDFATYYCQQYSTVPWTFGQGTKVEIKR
